Test [1] has as its target T1, Mu-type opioid receptor (Homo sapiens, UniProt P35372). The test can be described thus: biochemical. The class given is cell-based, CHO.
The target of test [2] is Kappa-type opioid receptor (Homo sapiens, UniProt P41145). The test is described as follows: biochemical. The test is classed as cell-based, CHO.
The species entered for test [3] is Homo sapiens. The test is described as follows: Selectivity index, ratio of inhibition of human delta opioid receptor to inhibition of human mu opioid receptor.
Test [4] is filed under the species Homo sapiens. The test can be described thus: Selectivity index, ratio of inhibition of human kappa opioid receptor to inhibition of human mu opioid receptor.
For test [5], the target named is T1, Mu-type opioid receptor. The test is described as follows: Agonist activity at human mu opioid receptor expressed in CHO cells assessed as stimulation of […]GTPgammaS binding after 60 mins by scintillation counting. The class given is functional, cell-based. On the technique in general: Binding of GTPγS marks nucleotide exchange on a G protein.
In test [6] the target is T1, Mu-type opioid receptor. The test can be described thus: Agonist activity at human mu opioid receptor expressed in CHO cells assessed as stimulation of […]GTPgammaS binding after 60 mins by scintillation counting relative to control. The test is classed as functional, cell-based. The method in brief: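 Membranes from CHO cells stably expressing human KOR (15 μg protein per tube) or MOR (7.5 μg protein per tube). Nonspecific binding with 10 μM GTPγS. Filtration, then scintillation counting. Triplicate, at least three experiments.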

By UniProt entry, the sequences of proteins in these tests, tags left out. Where a name states a change or a piece, a line headed by the entry shows the natural chain unless it says otherwise.
UniProt P35372, whole entry: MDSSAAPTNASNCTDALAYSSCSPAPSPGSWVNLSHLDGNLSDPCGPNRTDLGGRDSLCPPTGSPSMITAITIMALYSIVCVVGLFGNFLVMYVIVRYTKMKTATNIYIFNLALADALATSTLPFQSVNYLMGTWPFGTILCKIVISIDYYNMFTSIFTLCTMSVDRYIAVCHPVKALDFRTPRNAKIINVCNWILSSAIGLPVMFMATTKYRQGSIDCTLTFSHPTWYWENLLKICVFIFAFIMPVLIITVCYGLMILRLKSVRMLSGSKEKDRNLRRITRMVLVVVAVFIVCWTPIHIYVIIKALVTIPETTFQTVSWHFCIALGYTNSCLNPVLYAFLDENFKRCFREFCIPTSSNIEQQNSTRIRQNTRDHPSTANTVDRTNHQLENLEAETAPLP
UniProt P41145: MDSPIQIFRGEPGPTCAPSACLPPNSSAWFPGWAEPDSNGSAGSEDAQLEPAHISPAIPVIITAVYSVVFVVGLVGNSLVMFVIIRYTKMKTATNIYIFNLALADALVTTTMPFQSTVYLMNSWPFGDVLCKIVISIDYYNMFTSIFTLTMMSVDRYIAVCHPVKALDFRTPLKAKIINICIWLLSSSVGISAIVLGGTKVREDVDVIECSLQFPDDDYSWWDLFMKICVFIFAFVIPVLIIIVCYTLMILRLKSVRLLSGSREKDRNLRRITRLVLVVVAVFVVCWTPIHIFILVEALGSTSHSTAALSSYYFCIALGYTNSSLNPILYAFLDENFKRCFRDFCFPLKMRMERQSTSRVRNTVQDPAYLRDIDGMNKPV

This is an account of results in ChEMBL document CHEMBL2046406 (J Med Chem, 2012).

SMILES strings stand for the structures.

What is called Ki is the dissociation constant of the complex between target and ligand, obtained from inhibition or displacement. Read a high Ki as lower affinity. For orientation: EC50 means the concentration that produces a half-maximal response. For orientation: Emax means the size of the effect at its maximum, as opposed to the concentration needed.

Turning to `COc1cccc(CNc2ccc3c4c2O[C@H]2[C@@H](O)C=C[C@H]5[C@@H](C3)N(C)CC[C@@]452)c1`, the affinity in test [1], expressed as Ki, was 45 nM.
Still for that read-out and setting: with `CN1CC[C@]23c4c5ccc(NCc6ccccc6O)c4O[C@H]2[C@@H](O)C=C[C@H]3[C@H]1C5` the figure was 13 nM.
In test [2], `COc1ccc2c3c1O[C@H]1C(=O)CC[C@H]4[C@@H](C2)N(C)CC[C@]314` [HYDROCODONE] displayed a Ki of 260 nM.
For `CN1CC[C@]23CCCC[C@H]2[C@H]1Cc1ccc(O)cc13`, the Selectivity ratio in test [3] was found to be 11; in test [4], 20.
As to `COc1ccccc1CNc1ccc2c3c1O[C@H]1[C@@H](O)C=C[C@H]4[C@@H](C2)N(C)CC[C@@]341`, in test [1], the Ki came out at 8.5 nM. For the same compound, the figures for the Selectivity ratio in test [3] and in test [4] were 16 and greater than 1200, respectively. The EC50 in test [5] turned out to be 210 nM. The Emax in test [6] was found to be 81%.
